Among the data in ChEMBL document CHEMBL1212786 (Antimicrob Agents Chemother, 2010) are Ki values, retold here.

Sequences of proteins named here, by UniProt entry; tags and fusion partners are left off.
UniProt P62937, whole entry: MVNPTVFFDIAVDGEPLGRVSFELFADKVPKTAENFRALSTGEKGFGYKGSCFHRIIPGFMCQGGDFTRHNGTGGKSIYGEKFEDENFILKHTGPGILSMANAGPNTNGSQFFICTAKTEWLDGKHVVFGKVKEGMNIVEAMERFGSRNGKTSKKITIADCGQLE

For this assay, the target named is Peptidyl-prolyl cis-trans isomerase A (Homo sapiens, UniProt P62937). The experiment in a line: Inhibition of calcineurin phosphatase activity of CyPA.

pKi: −log10 of the molar value.

A word on the pKi: it is −log10 of the Ki, conventionally taken in molar units. For the molecule `C/C=C/C[C@@H](C)[C@@H](O)[C@H]1C(=O)N[C@@H](CC)C(=O)N(C)C(SCCN(C)C)C(=O)N(C)[C@@H](CC(C)(C)O)C(=O)N[C@@H](C(C)C)C(=O)N(C)[C@@H](CC(C)C)C(=O)N[C@@H](C)C(=O)N[C@H](C)C(=O)N(C)[C@@H](CC(C)C)C(=O)N(C)[C@@H](CC(C)C)C(=O)N(C)[C@@H](C(C)C)C(=O)N1C` (single isomer, unassigned) [SCY 635], the pKi was 8.74.
